This is a selection; strong and weak results do not stand in their true shares. Results filed as inconclusive are left out. Active and inactive are the calls of the source. Unless noted, calls follow the shape of the dose curve; as a rule, active = well fitted curve in the direction sought with a large enough effect; inconclusive = small, poorly fitted or top-dose-only effect, or another doubt; inactive = no such curve, though single readings can be large; an effect the other way counts as inactive or inconclusive.

Chains of the proteins cited; added tags and fusions are not shown.
UniProt Q9GZX7, whole entry: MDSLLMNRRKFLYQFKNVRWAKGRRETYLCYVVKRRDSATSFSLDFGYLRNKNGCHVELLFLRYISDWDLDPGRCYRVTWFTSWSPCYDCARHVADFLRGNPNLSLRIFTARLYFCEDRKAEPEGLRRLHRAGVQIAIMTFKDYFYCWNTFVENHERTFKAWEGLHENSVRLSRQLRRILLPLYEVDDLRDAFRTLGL
UniProt O95398, whole entry: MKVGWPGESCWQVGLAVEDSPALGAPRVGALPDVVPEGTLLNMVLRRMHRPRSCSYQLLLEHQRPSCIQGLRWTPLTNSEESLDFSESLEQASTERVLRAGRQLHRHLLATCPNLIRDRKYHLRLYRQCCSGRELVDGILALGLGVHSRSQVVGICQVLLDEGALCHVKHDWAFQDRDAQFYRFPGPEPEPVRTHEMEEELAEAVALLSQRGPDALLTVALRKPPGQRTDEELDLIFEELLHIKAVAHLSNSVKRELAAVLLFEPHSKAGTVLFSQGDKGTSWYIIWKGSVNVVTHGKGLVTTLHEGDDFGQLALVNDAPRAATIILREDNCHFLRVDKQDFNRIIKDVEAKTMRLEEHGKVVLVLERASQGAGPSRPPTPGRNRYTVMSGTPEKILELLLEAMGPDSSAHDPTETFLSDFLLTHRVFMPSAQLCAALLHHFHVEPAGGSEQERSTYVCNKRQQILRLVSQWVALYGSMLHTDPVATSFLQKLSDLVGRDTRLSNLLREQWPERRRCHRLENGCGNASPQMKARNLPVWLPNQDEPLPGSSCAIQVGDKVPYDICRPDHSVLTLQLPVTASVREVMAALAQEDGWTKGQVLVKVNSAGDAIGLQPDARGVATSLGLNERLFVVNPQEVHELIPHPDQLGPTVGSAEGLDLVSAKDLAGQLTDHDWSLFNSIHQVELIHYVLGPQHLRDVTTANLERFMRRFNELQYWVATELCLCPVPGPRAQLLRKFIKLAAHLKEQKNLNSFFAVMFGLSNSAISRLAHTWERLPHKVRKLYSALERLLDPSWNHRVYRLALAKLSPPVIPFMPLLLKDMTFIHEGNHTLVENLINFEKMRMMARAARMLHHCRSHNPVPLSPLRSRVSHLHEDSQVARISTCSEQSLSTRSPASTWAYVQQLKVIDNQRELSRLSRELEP
UniProt Q8WZA2, whole entry: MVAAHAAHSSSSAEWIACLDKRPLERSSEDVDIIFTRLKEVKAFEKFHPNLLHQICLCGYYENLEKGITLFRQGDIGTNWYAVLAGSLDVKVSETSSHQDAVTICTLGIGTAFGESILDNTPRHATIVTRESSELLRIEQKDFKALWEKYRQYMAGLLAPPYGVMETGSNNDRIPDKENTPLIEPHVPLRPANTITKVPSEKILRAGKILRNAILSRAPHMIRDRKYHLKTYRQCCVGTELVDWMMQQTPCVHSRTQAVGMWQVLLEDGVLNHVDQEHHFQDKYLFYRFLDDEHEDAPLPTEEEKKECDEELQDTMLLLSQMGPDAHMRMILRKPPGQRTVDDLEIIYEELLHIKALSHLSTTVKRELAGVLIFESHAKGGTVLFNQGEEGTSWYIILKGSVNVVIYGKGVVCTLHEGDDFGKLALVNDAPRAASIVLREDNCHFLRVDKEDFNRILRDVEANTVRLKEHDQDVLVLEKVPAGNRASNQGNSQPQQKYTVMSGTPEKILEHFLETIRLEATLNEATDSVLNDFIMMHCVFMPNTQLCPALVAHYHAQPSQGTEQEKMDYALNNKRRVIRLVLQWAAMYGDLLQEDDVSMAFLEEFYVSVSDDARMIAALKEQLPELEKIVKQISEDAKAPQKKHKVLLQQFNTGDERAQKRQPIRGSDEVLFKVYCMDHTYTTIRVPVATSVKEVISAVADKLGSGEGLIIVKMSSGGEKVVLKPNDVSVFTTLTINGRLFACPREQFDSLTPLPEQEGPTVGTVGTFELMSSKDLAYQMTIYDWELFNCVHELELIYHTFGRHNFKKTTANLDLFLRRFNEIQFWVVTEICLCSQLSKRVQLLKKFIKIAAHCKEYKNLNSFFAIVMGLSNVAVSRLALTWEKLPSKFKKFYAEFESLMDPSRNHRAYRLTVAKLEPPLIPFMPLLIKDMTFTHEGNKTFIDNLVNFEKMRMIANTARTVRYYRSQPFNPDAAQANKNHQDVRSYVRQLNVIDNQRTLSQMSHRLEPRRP
UniProt O15297, whole entry: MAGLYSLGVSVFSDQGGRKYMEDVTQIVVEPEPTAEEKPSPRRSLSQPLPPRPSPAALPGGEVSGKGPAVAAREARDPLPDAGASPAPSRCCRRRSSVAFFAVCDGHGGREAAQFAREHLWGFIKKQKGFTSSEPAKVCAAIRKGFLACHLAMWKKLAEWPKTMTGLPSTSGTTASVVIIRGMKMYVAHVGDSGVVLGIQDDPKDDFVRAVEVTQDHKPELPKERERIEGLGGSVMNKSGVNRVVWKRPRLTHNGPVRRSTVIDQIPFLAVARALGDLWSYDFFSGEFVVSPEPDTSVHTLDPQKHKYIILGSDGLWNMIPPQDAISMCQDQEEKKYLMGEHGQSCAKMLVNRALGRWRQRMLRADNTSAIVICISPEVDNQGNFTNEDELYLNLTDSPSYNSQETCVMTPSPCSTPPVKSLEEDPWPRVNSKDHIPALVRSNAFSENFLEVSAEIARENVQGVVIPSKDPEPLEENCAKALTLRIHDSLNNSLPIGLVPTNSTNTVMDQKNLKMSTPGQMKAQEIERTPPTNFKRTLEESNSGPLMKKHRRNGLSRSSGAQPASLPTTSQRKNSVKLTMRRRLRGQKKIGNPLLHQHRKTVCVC
UniProt Q99828, whole entry: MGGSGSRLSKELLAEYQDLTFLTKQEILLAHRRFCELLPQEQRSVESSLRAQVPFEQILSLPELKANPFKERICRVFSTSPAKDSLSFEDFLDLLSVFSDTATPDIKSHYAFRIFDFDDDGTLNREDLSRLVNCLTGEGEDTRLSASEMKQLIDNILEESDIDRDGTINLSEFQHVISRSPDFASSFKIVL
UniProt P10635, whole entry: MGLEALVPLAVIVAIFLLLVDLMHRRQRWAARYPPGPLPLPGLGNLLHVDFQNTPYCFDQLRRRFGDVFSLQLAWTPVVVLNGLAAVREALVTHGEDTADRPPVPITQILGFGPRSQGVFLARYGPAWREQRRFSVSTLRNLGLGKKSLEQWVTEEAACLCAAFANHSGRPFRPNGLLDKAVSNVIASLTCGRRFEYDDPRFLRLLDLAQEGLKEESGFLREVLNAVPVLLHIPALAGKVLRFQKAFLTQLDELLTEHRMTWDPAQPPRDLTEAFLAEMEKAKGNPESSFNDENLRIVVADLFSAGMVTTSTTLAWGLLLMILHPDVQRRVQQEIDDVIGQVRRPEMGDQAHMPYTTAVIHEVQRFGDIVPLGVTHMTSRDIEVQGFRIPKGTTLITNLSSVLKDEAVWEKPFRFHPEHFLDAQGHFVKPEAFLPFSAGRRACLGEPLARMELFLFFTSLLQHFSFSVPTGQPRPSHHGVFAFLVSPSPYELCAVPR
UniProt P08684, whole entry: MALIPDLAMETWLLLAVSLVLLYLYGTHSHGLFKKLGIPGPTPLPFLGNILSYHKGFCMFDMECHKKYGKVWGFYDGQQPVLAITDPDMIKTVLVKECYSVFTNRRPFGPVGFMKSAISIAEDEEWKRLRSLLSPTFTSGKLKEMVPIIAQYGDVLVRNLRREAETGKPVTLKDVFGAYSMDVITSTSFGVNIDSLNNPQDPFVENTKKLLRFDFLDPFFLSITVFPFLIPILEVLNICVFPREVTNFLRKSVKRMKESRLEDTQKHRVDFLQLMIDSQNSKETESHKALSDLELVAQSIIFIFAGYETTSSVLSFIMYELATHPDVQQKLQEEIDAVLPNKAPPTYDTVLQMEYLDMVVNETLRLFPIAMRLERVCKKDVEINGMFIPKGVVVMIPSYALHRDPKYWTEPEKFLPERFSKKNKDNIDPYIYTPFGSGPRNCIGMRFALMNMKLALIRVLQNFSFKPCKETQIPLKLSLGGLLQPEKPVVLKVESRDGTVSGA
UniProt P11712, whole entry: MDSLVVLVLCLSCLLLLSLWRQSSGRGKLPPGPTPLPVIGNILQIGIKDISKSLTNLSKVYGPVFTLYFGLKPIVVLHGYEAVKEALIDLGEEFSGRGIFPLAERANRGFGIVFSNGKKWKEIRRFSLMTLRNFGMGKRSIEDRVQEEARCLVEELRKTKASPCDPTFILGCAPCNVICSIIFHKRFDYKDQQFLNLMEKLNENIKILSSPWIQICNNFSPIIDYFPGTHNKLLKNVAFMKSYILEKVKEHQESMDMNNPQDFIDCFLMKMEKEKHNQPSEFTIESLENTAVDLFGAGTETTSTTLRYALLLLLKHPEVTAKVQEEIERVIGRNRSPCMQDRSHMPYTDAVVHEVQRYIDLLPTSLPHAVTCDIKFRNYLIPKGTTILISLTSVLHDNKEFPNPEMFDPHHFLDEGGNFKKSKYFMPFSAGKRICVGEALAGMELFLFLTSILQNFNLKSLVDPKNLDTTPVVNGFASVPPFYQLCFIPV

A short description of test [1]: Validation qHTS assay for inhibitors of Activation Induced Cytidine Deaminase (AID): UDG Counterscreen signal (AID 1347427). Also: 0% is about no effect. To be noted: biochemical UDG counterscreen, fluorescence signal; at 115 µM (top of the series). The method in brief:
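Counterscreen read of UDG activity (2 U/mL, 4/3x) in the FRET deamination format with AID (1 uM, 4/3x), DJC20/DJC23 substrates (250 nM, 4x), 4 h at room temperature. NaOH stop, fluorescence at 560 ex/665 em.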

Test [2] addresses Single-stranded DNA cytosine deaminase (Homo sapiens) (UniProt Q9GZX7). The experiment in a line: Validation qHTS assay for inhibitors of Activation Induced Cytidine Deaminase (AID): AID signal (AID 1347429). Also: % is scaled to controls: 0 for no effect and ±100 for the full control effect. The following applies: Recombinant AID, FRET ssDNA deamination with UDG, fluorescence; at 115 µM (top of the series). The method in brief: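 In this coupled qHTS, AID deaminates a FRET-labelled ssDNA substrate in the presence of UDG over 4 hr at room temperature. Compounds span up to 114 uM final.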

Test [3] deals with Rap guanine nucleotide exchange factor 3 (Homo sapiens) (UniProt O95398). The experiment in a line: Confirmatory qHTS for agonist of cAMP-regulated guanine nucleotide exchange factor 3 (EPAC1) (AID 1645881).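 Also: EPAC1 catalysed release of BODIPY-GDP from Rap1B seen as fluorescence loss; nearly all actives have a fitted effect of over 75% in size.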 The following applies: EPAC1 Rap1B BODIPY-GDP exchange fluorescence, 100% = cAMP control response; at 154 µM (top of the series).
Test [4] addresses Rap guanine nucleotide exchange factor 4 (Homo sapiens) (UniProt Q8WZA2). Description: Confirmatory qHTS for agonist of cAMP-regulated guanine nucleotide exchange factor 4 (EPAC2) (AID 1645884).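 Also: nucleotide exchange releases bodipy-GDP from Rap1 and this lowers its fluorescence; % is scaled to controls: 0 for no effect and ±100 for the full control effect; nearly all actives have a fitted effect of over 65% in size.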 To be noted: EPAC2 GEF activity, Rap1B-BODIPY-GDP fluorescence, percent relative to cAMP agonist control; at 154 µM (top of the series).
The nature of test [5]: qHTS of pediatric cancer cell lines to identify multiple opportunities for drug repurposing: Primary screen for control Hh wild type fibroblast cells (AID 1347106).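 Also: % is scaled to controls: 0 for no effect and ±100 for the full control effect; a drop in luminescence marks cytotoxicity and a rise apparent proliferation; nearly all actives have a fitted effect of over 55% in size.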 To be noted: Hh wild-type fibroblast viability, CellTiter-Glo luminescence, 48 h; at 46 µM (top of the series) unless noted. The method in brief:
(§1)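 Viability after 48 h compound treatment at 37C, 500-1,000 cells/well, read as ATP luminescence with CellTiter-Glo. Primary screens used 11-point (MIPE, 0.78 nM-46 µM) or 8-point (NPC, 0.59 nM-46 µM) final concentrations; follow-up screens used 11-point dilutions.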

Test [6] is described as follows: qHTS of pediatric cancer cell lines to identify multiple opportunities for drug repurposing: Primary screen for Rh30 cells (AID 1347107). Also: % is scaled to controls: 0 for no effect and ±100 for the full control effect; nearly all actives have a fitted effect of over 75% in size. To be noted: Rh30 rhabdomyosarcoma viability, CellTiter-Glo luminescence, 48 h; at 46 µM (top of the series) unless noted. In outline: as §1
Test [7] can be described thus: qHTS of pediatric cancer cell lines to identify multiple opportunities for drug repurposing: Primary screen for Rh41 cells (AID 1347108).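 Also: luminescence drop marks cytotoxic hits; nearly all actives have a fitted effect of over 70% in size.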 To be noted: Rh41 rhabdomyosarcoma viability, CellTiter-Glo luminescence, 48 h; at 92.7 µM (top of the series) unless noted. The method in brief: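 CRCs from 8- or 11-point titrations (lowest final 0.59 nM NPC, 0.78 nM MIPE). Cell viability: CellTiter-Glo after 48 h incubation, 15 min room-temperature development, luminescence imaging.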
(Quantitative high-throughput screening tests each substance at several concentrations.)

The nature of test [8]: qHTS to identify inhibitors of the type 1 interferon - major histocompatibility complex class I in skeletal muscle: primary screen against the NCATS Pharmaceutical Collection (AID 1347407).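 Also: luminescence of HiBiT knocked into endogenous HLA-B as interferon-induced MHC class I level; % is scaled to controls: 0 for no effect and ±100 for the full control effect.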 To be noted: human skeletal muscle cells, IFN-b-induced MHC-I HiBiT luminescence, 24 h; at 45.9 µM (top of the series) unless noted. The method in brief:
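Immortalized human myoblasts (C25cl48) with HiBiT knocked into endogenous HLA-B*08:01 were stimulated with 4 ng/ml IFN-beta and treated with compounds (8-point, 1:5, top 46 uM final) for 24 h at 37 C; HiBiT lytic luminescence read.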

In test [9] the target is Protein phosphatase 1D (Homo sapiens) (UniProt O15297). The experiment in a line: RapidFire Mass Spectrometry qHTS Assay for Modulators of WT P53-Induced Phosphatase 1 (WIP1) (AID 1347424).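 Also: amount of dephosphorylated VEPPL-S-QETFS peptide product formed by WIP1; plate controls were DMSO wells for no effect and GSK830371 inhibitor control at 10 µM for full effect.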 To be noted: WIP1 dephosphorylation of phosphopeptide, RapidFire MS; at 63 µM (top of the series) unless noted. The method in brief: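 10 nM WIP1 preincubated with compounds 1 hr at room temperature in pH 7.5 Tris buffer with 30 mM MgCl2, 1 mM TCEP; 2 uM VEPPL-pS-QETFS phosphopeptide for 5 min, formic acid quench; dephosphorylated product quantified by RapidFire MS against labelled standard.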

Test [10] has the same target. Description: Rhodamine-PBP qHTS Assay for Modulators of WT P53-Induced Phosphatase 1 (WIP1) (AID 1347425). Also: % of control where 0% means no effect. The following applies: recombinant WIP1, Rhodamine-PBP phosphate fluorescence, real-time; at 57.5 µM (top of the series) unless noted. In outline: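 The read-out is the change in Rhodamine-PBP fluorescence (f1 - f0, ex 525/em 598 nm) as Pi is released, read each minute for 11 min. Final reaction: 5 nM WIP1, 10 uM phosphopeptide VEPPL-pS-QETFS, 10 uM Rh-PBP, 50 mM Tris-HCl pH 7.5, 30 mM MgCl2. Compound was preincubated with enzyme for 1 hour at room temperature.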

The target of test [11] is Calcium and integrin-binding protein 1 (Homo sapiens) (UniProt Q99828). Description: Primary qHTS for Identification of Calcium Integrin Binding Protein 1 (CIB1) Competitor (AID 1508620). Also: top concentration of the series differs between compounds; % is scaled to controls: 0 for no effect and ±100 for the full control effect. To be noted: CIB1-GST / FITC-alphaIIb peptide fluorescence polarization; at 114 µM (top of the series) unless noted. The method in brief: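 Fluorescence polarization competition: GST-tagged CIB1 (1 uM final) preincubated with compound 15 min at room temperature, then FITC-labelled alphaIIb peptide (100 nM final) added. After 15 min at room temperature, polarization read at Ex 480/Em 540.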

Test [12] is described as follows: A High-Content qHTS Against Drug Library for the Identification of Small Molecules that Inhibit DYT1 Early Onset Primary Dystonia-Associated Cell Pathology (AID 1645839; calls by dose curve). To be noted: HEK293 Flp-In EGFP-delE TorsinA, punctate imaging, 48 h; at 46.1 µM (top of the series) unless noted. In outline:
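Flp-In T-REx 293 cells with tetracycline-inducible EGFP-delE hTOR1A (WT EGFP-hTOR1A as reference), 800 cells/well; compound added with tetracycline, 48 h at 37 C. Fixed, permeabilized cells imaged; %pathology (punctate TorsinA) primary, cell count counterscreen.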

The target of test [13] is Cytochrome P450 2D6 (Homo sapiens) (UniProt P10635). The experiment in a line: Cytochrome P450 family 2 subfamily D member 6 (CYP2D6) small molecule antagonists: luciferase biochemical (cell-free) qHTS assay (AID 1645840; active = well fitted curve in the direction sought with a large enough effect in the repeat runs; an effect the other way counts as inactive or inconclusive; also: nearly all actives have a fitted effect of over 55% in size; also: potency is read from the fitted curve at half-maximal effect). In outline: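 P450-Glo luminescent screen: recombinant CYP2D6 enzyme–proluciferin substrate mix preincubated with compound 10 min at room temperature, then NADPH regeneration added for 1 h at room temperature. Detection reagent added for 20 min; luciferin light read as relative luminescence units.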

Test [14] addresses Cytochrome P450 3A4 (Homo sapiens) (UniProt P08684). The experiment in a line: Cytochrome P450 family 3 subfamily A member 4 (CYP3A4) small molecule antagonists: luciferase qHTS assay (AID 1645841; active = well fitted curve in the direction sought with a large enough effect in the repeat runs; an effect the other way counts as inactive or inconclusive; also: nearly all actives have a fitted effect of over 45% in size).
The target in test [15] is Cytochrome P450 2C9 (Homo sapiens) (UniProt P11712). The experiment in a line: Cytochrome P450 family 2 subfamily C member 9 (CYP2C9) small molecule antagonists: luciferase qHTS assay (AID 1645842; active = well fitted curve in the direction sought with a large enough effect in the repeat runs; an effect the other way counts as inactive or inconclusive; also: % is scaled to controls: 0 for no effect and ±100 for the full control effect; nearly all actives have a fitted effect of over 55% in size). To be noted: P450-Glo CYP2C9 enzyme assay, luciferin luminescence; at 57.4 µM (top of the series) unless noted. The method in brief:
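Luminescence, after 20 min with luciferin detection reagent, reflected CYP2C9 turnover during a 1 h NADPH-driven reaction at 37C. Enzyme-substrate mix contained 0.4% bovine serum albumin and was preincubated with compound 10 min at room temperature.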

Test [16] in a line: Primary qHTS for inhibitors of nuclear receptor binding SET domain protein 2 (NSD2) in an isogenic RCH-ACV NSD2 p.E1099K mutant (9B) (AID 1645876). Also: % is scaled to controls: 0 for no effect and ±100 for the full control effect; nearly all actives have a fitted effect of over 70% in size. The following applies: RCH-ACV NSD2 E1099K (9B) viability, CellTiter-Glo, 72 h; at 44.9 µM (top of the series) unless noted.
Test [17] is described as follows: Primary qHTS for inhibitors of nuclear receptor binding SET domain protein 2 (NSD2) in an RCH-ACV wild type WT cells (2C) (AID 1645877). Also: % is scaled to controls: 0 for no effect and ±100 for the full control effect; nearly all actives have a fitted effect of over 70% in size. The following applies: RCH-ACV (leukaemia line) NSD2 WT (2C) viability, CellTiter-Glo, 72 h; at 44.9 µM (top of the series) unless noted.
The nature of test [18]: Primary qHTS for small molecule stabilizers of the endoplasmic reticulum resident proteome: Secreted ER Calcium Modulated Protein (SERCaMP) assay (AID 1508630). Also: % is scaled to controls: 0 for no effect and ±100 for the full control effect. The following applies: SH-SY5Y GLuc-SERCaMP (Gaussia luciferase released on ER calcium loss) secretion, thapsigargin, luminescence; at 38.4 µM (top of the series). In outline: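 GLuc-SERCaMP-expressing SH-SY5Y cells, pretreated 16 h with compound, are challenged with thapsigargin to empty ER calcium stores; after 4 h, coelenterazine is added directly to the medium and luminescence is imaged.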

Consider `N#[O+].[C-]#N.[C-]#N.[C-]#N.[C-]#N.[C-]#N.[Fe+2].[Na+].[Na+]`, for which the activity, negative = inhibition in test [1] is inactive: 9.57%. Moreover, the activity change, negative = inhibition in [2] is inactive: 20.2%.
Turning to `O=[N+]([O-])c1cc([N+](=O)[O-])c(C(F)(F)F)c([N+](=O)[O-])c1O`, the activation is inactive: 1.47% in test [3] and inactive: 0% in test [4].
`OCCSCCO`: the activity change, negative = cytotoxic in test [5] was inactive: 10.4%; in test [6] it was inactive: 20%; in [7], inactive: 26.7% [at 46 µM]. The activity change, negative = inhibition in test [8] was inactive: 0.0184%; in test [9], inactive: 0.969%; in test [10], inactive: 0.0359%; in test [11] it was inactive: 0.989%; in test [15], inactive: 16.9%. Also, the % pathology change, negative = correction in test [12] is inactive: 1.9%. The Potency entry in test [13] and in test [14] was “inactive” throughout. For the same molecule, the activity change, negative = viability loss in test [16] was inactive: 6.98%. The activity change, negative = cell killing in [17] is inactive: 9.55%.
On to `CC1=C2[N-][C@@](C)([C@@H]3N=C(C(C)=C4N=C(C=C5N=C1[C@@](C)(CC(N)=O)[C@H]5CCC(N)=O)C(C)(C)[C@H]4CCC(N)=O)[C@](C)(CCC(=O)NC[C@@H](C)OP(=O)([O-])O[C@H]1[C@@H](O)[C@@H](n4cnc5cc(C)c(C)cc54)O[C@H]1CO)[C@H]3CC(N)=O)[C@@](C)(CC(N)=O)[C@@H]2CCC(N)=O.[C-]#N.[Co+3]`, for which the activity change, negative = cytotoxic in [5] is inactive: -1.21% [at 16.1 µM]. Besides, the activity change, negative = inhibition in test [11] is inactive: 2.94% [at 30.2 µM].
As for `CCOP(=O)(CC)Oc1ccc([N+](=O)[O-])cc1` (configuration not stated), the activity change, negative = cytotoxic in [5] is inactive: -8.71%; in [6], inactive: 3.59%; in test [7], inactive: 5.02% [at 46 µM]. Also, the activity change, negative = inhibition in test [8] was inactive: 2.82%; in test [9] it was inactive: -9.78%; in [10], inactive: -1.78%; in test [11], inactive: 4.64%; in [18], inactive: -10.6%; in test [15], inactive: -2.1%. In addition, the % pathology change, negative = correction in test [12] is inactive: 2.2%. The Potency in test [13] is active: 977 nM. Besides, the Potency entry in test [14] is “inactive”. The activity change, negative = cell killing in test [17] was inactive: -25.3%.

Source of the values: PubChem BioAssay (NCATS).
